We go through one substance from US20260076602A1, “SYSTEM AND METHOD FOR RAPID ASSESSMENT OF RENAL FUNCTION” (Mayo Foundation for Medical Education and Research, priority 2018, published 2026).

The conditions of the data set: mouse, in vivo, iv.

As to Rhod-Dextran, the “fluorescence of tracer agent after injection (clearance by healthy renal function)” value is “substantially not cleared”.
